Results published in PubChem BioAssay (NCI).
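Compound exposure: 48 hours, 5 concentrations, 96-well plates. GI50 = concentration required for 50% inhibition of growth. TGI marks complete inhibition of growth.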

What was measured:
Test in all cases: NCI-60 cell line screen, 48 h
[1] = tested on: OVCAR-8 ovarian
[2] = tested on: SF-268 CNS
[3] = tested on: CCRF-CEM leukemia
[4] = tested on: MOLT-4 leukemia
[5] = tested on: CAKI-1 renal
[6] = tested on: RXF 393 renal
[7] = tested on: IGROV1 ovarian
[8] = tested on: MDA-MB-435
[9] = tested on: U251 CNS
[10] = tested on: HS 578T breast
[11] = tested on: NCI-H226 lung
[12] = tested on: NCI/ADR-RES ovarian
[13] = tested on: T-47D breast
[14] = tested on: SNB-19 CNS
[15] = tested on: OVCAR-3 ovarian
[16] = tested on: NCI-H23 lung
[17] = tested on: HCT-116 colon
[18] = tested on: MCF7 breast
[19] = tested on: SW-620 colon
[20] = tested on: A498 renal
[21] = tested on: NCI-H460 lung
[22] = tested on: KM12 colon
[23] = tested on: HCC-2998 colon
[24] = tested on: UO-31 renal
[25] = tested on: SK-MEL-28 melanoma
[26] = tested on: SK-OV-3 ovarian
[27] = tested on: COLO 205 colon
[28] = tested on: K-562 leukemia
[29] = tested on: RPMI-8226 leukemia
[30] = tested on: BT-549 breast
[31] = tested on: OVCAR-5 ovarian
[32] = tested on: MDA-MB-231 breast
[33] = tested on: HT29 colon
[34] = tested on: HOP-62 NSCLC
[35] = tested on: TK-10 renal
[36] = tested on: SF-295 CNS
[37] = tested on: ACHN renal
[38] = tested on: PC-3 prostate
[39] = tested on: SR leukemia
[40] = tested on: SK-MEL-5 melanoma
[41] = tested on: 786-0 renal
[42] = tested on: NCI-H522 lung
[43] = tested on: NCI-H322M lung
[44] = tested on: M14 melanoma
[45] = tested on: UACC-62 melanoma
[46] = tested on: SF-539 CNS
[47] = tested on: LOX IMVI melanoma
[48] = tested on: MALME-3M melanoma
[49] = tested on: OVCAR-4 ovarian
[50] = tested on: HCT-15 colon
[51] = tested on: SK-MEL-2 melanoma
[52] = tested on: UACC-257 melanoma
[53] = tested on: A549 NSCLC
[54] = tested on: SNB-75 CNS
[55] = tested on: DU-145 prostate
[56] = tested on: EKVX NSCLC
[57] = tested on: SN12C renal

## BrCCN(CCBr)c1ccc2c(c1)Cc1ccccc1-2
[1]
  GI50: 1490 nM
  TGI: 4.5 µM
[2]
  GI50: 1300 nM
  TGI: 10.4 µM
[3]
  GI50: 951 nM
  TGI: > 100 µM
[4]
  GI50: 743 nM
  TGI: > 100 µM
[5]
  GI50: 227 nM
  TGI: 804 nM
[6]
  GI50: 1600 nM
  TGI: 3.11 µM
[7]
  GI50: 1420 nM
  TGI: 4.69 µM
[8]
  GI50: 1780 nM
  TGI: 4.18 µM
[9]
  GI50: 1230 nM
  TGI: 4.01 µM
[10]
  GI50: 4.07 µM
  TGI: 39.9 µM
[11]
  GI50: 1530 nM
  TGI: 4.63 µM
[12]
  GI50: 1500 nM
  TGI: 5.75 µM
[13]
  GI50: 1480 nM
  TGI: 7.39 µM
[14]
  GI50: 2240 nM
  TGI: 14.5 µM
[15]
  GI50: 2130 nM
  TGI: 6.42 µM
[16]
  GI50: 672 nM
  TGI: 3.29 µM
[17]
  GI50: 1210 nM
  TGI: 2920 nM
[18]
  GI50: 253 nM
  TGI: 4.49 µM
[19]
  GI50: 997 nM
  TGI: 10.6 µM
[20]
  GI50: 1560 nM
  TGI: 3.67 µM
[21]
  GI50: 353 nM
  TGI: 4.09 µM
[22]
  GI50: 2330 nM
  TGI: 10.8 µM
[23]
  GI50: 1480 nM
  TGI: 3.04 µM
[24]
  GI50: 1620 nM
  TGI: 4.53 µM
[25]
  GI50: 2590 nM
  TGI: 7.65 µM
[26]
  GI50: 2170 nM
  TGI: 8.6 µM
[27]
  GI50: 1560 nM
  TGI: 3.52 µM
[28]
  GI50: 2720 nM
  TGI: > 100 µM
[29]
  GI50: 1640 nM
  TGI: 8.95 µM
[30]
  GI50: 1660 nM
  TGI: 4.62 µM
[31]
  GI50: 3.14 µM
  TGI: 9.23 µM
[32]
  GI50: 2750 nM
  TGI: 11.6 µM
[33]
  GI50: 1840 nM
  TGI: 6.35 µM
[34]
  GI50: 1760 nM
  TGI: 5.85 µM
[35]
  GI50: 2540 nM
  TGI: 6.14 µM
[36]
  GI50: 1060 nM
  TGI: 4.99 µM
[37]
  GI50: 401 nM
  TGI: 3.07 µM
[38]
  GI50: 2040 nM
  TGI: 12.8 µM
[39]
  GI50: 231 nM
  TGI: > 100 µM
[40]
  GI50: 1360 nM
  TGI: 2660 nM
[41]
  GI50: 1190 nM
  TGI: 3.02 µM
[42]
  GI50: 1500 nM
  TGI: 3.29 µM
[43]
  GI50: 2650 nM
  TGI: 7.95 µM
[44]
  GI50: 1300 nM
  TGI: 3.55 µM
[45]
  GI50: 1170 nM
  TGI: 2820 nM
[46]
  GI50: 1070 nM
  TGI: 5.77 µM
[47]
  GI50: 1110 nM
  TGI: 3.78 µM
[48]
  GI50: 1550 nM
  TGI: 4.56 µM
[49]
  GI50: 2060 nM
  TGI: 5.53 µM
[50]
  GI50: 1900 nM
  TGI: 7.21 µM
[51]
  GI50: 2280 nM
  TGI: 4.63 µM
[52]
  GI50: 2200 nM
  TGI: 6.47 µM
[53]
  GI50: 1200 nM
  TGI: 10.3 µM
[54]
  GI50: 2080 nM
  TGI: 7 µM
[55]
  GI50: 1830 nM
  TGI: 11.1 µM
[56]
  GI50: 2250 nM
  TGI: 7.76 µM
[57]
  GI50: 1270 nM
  TGI: 8.06 µM
